The source of these data is patent publication US7488745B2, “Compounds for the treatment of inflammatory disorders” (Schering Corporation, priority 2004, dated 2009).

Chains of the proteins cited; added tags and fusions are not shown. Residues count along the entry.
UniProt P78536, 215-477 S266A/N452Q limits assumed: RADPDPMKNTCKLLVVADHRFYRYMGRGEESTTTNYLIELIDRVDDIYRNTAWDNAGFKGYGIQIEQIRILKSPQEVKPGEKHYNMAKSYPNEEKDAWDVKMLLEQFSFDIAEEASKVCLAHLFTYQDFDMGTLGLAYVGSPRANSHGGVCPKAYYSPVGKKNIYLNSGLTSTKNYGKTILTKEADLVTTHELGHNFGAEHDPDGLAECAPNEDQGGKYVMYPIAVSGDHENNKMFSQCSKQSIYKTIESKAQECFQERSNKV

Where only a bound is given, the exact number is not on record here.

The target of the first assay is purified catalytic domain of recombinant human TACE (rhTACEc) (Homo sapiens, UniProt P78536, N452Q/S266A). Briefly: TACE kinetic assay: cleavage of internally quenched peptide substrate SPDL-3 (fluorescence). The following applies: Ki (nM), Specific TACE inhibitory activity (Ki values).
Consider `COc1ccc2c(c1)C(=O)N(C[C@@]1(c3ccc(-c4cc(C)c5c(cnn5C)c4)cc3)NC(=O)NC1=O)C2` [Compound 7020], for which the Ki (commonly a measure of affinity in units of concentration, obtained from inhibition or displacement) amounted to 2.85 nM.

As to `O=C1NC(=O)[C@](CN2Cc3ccc(F)cc3C2=O)(c2ccc(-c3ccc(-n4ccnc4)cc3)cc2)N1` [Compound 7018], the Ki stood at 3.25 nM.

With `COc1ccc2c(c1)C(=O)N(C[C@@]1(c3cc4cccnc4o3)NC(=O)NC1=O)C2` [Compound 9217], the inhibition constant Ki is 0.7 nM.

Still in this assay, the particulars now being: Ki (nM), TABLE 6000; Ki printed as class symbols A-D.
On to `O=C1NC(=O)[C@](CN2Cc3ccc(F)cc3C2=O)(c2cc(-c3ccccc3)no2)N1` [Compound 9247], for which the Ki was less than 10 nM.

With `COc1ccc2c(c1)C(=O)N(C[C@@]1(c3cc4ccc(C)nc4o3)NC(=O)NC1=O)C2` [Compound 9940], the Ki was less than 10 nM.

Consider `COc1ccc2c(c1)C(=O)N(C[C@@]1(c3cnn(C(C)C)n3)NC(=O)NC1=O)C2` [Compound 9264], for which the Ki was less than 10 nM.

In the case of `COc1ccc2c(c1)C(=O)N(C[C@@]1(c3ccc(-c4ccccc4-c4nnn(C)n4)cc3)NC(=O)NC1=O)C2` [Compound 9755], the Ki was less than 10 nM.

Turning to `COc1ccc2c(c1)C(=O)N(C[C@@]1(c3ccc(-c4ncccc4C(F)(F)F)cc3)NC(=O)NC1=O)C2` [Compound 9914], the Ki is less than 10 nM.

As to `COc1ccc2c(c1)C(=O)N(C[C@@]1(c3cc4ccncc4[nH]3)NC(=O)NC1=O)C2` [Compound 9230], the Ki is less than 10 nM.

On to `COc1ccc2c(c1)C(=O)N(C[C@@]1(c3ccc(-c4cnc5ncccc5c4)cc3)NC(=O)NC1=O)C2` [Compound 9511], for which the Ki is less than 10 nM.

Take `COc1ccc2c(c1)C(=O)N(C[C@@]1(c3cc4cncnc4s3)NC(=O)NC1=O)C2` [Compound 9223]: the Ki was less than 10 nM.

Take `Cn1nnc(-c2ccccc2-c2ccc(C3(CN4Cc5ccc(F)cc5C4=O)NC(=O)NC3=O)cc2)n1` (stereo not drawn) [Compound 9752]: the Ki was less than 10 nM.

As for `COc1ccc2c(c1)C(=O)N(C[C@@]1(/C=C/c3ccc(F)cc3)NC(=O)NC1=O)C2` [Compound 9237], the Ki was less than 10 nM.

`O=C1NC(=O)[C@](CN2Cc3ccc(F)cc3C2=O)(c2ccc(-c3ccc(-n4ccnc4)cc3)cc2)N1` [Compound 9746]: the Ki is less than 10 nM.

On to `COc1ccc2c(c1)C(=O)N(C[C@@]1(c3cc4cc(C)cnc4o3)NC(=O)NC1=O)C2` [Compound 9276], for which the Ki was less than 10 nM.

For `COc1ccc2c(c1)C(=O)N(C[C@@]1(c3cc(-c4ccccc4)nn3C)NC(=O)NC1=O)C2` [Compound 9259], the Ki was less than 10 nM.

With `COc1ccc2c(c1)C(=O)N(C[C@@]1(c3ccc(-c4cnc(C)[nH]4)cc3)NC(=O)NC1=O)C2` [Compound 9515], the Ki was 100 to 1000 nM.

On to `COc1ccc2c(c1)C(=O)N(C[C@@]1(c3ccc(-c4cc(C)c5nn(CC6CC6)cc5c4)cc3)NC(=O)NC1=O)C2` [Compound 9732], for which the Ki is less than 10 nM.

As to `COc1ccc2c(c1)C(=O)N(C[C@@]1(c3cc4ccc(C5(C)NC(=O)NC5=O)cc4o3)NC(=O)NC1=O)C2` (stereo partly drawn) [Compound 9939], the Ki is less than 10 nM.

With `COc1ccc2c(c1)C(=O)N(C[C@@]1(c3cn(-c4cccnc4)nn3)NC(=O)NC1=O)C2` [Compound 9269], the Ki was less than 10 nM.

Regarding `COc1ccc2c(c1)C(=O)N(C[C@@]1(c3cc4cncnc4o3)NC(=O)NC1=O)C2` [Compound 9221], the Ki is less than 10 nM.

On to `COc1ccc2c(c1)C(=O)N(C[C@@]1(c3cc4cc(C(F)(F)F)cnc4o3)NC(=O)NC1=O)C2` [Compound 9207], for which the inhibition constant (Ki) was less than 10 nM.

On to `COc1ccc2c(c1)C(=O)N(C[C@@]1(c3cc(-c4ccccc4)nn3-c3nccc(C(F)(F)F)n3)NC(=O)NC1=O)C2` [Compound 9930], for which the Ki was less than 10 nM.

Turning to `COc1ccc2c(c1)C(=O)N(C[C@@]1(c3cn[nH]c3)NC(=O)NC1=O)C2` [Compound 9003M], the Ki was less than 10 nM.

Turning to `COc1ccc2c(c1)C(=O)N(C[C@@]1(c3ccc(OC(F)F)cc3)NC(=O)NC1=O)C2` [Compound 9624], the Ki was less than 10 nM.

For `COc1ccc2c(c1)C(=O)N(C[C@@]1(c3ccc(-c4cc(C)c5c(cnn5CC5CC5)c4)cc3)NC(=O)NC1=O)C2` [Compound 9733], the Ki was in the range of 10 to 100 nM.

In the case of `COc1ccc2c(c1)C(=O)N(C[C@@]1(c3ccc(-c4cnc5ccccc5n4)cc3)NC(=O)NC1=O)C2` [Compound 9906], the Ki is less than 10 nM.

In the case of `COc1ccc2c(c1)C(=O)N(C[C@@]1(c3cc4cc(Cl)cnc4o3)NC(=O)NC1=O)C2` [Compound 9208], the inhibition constant Ki is less than 10 nM.

On to `COc1ccc2c(c1)C(=O)N(C[C@@]1(c3cc4cccnc4o3)NC(=O)NC1=O)C2` [Compound 9217], for which the Ki is less than 10 nM.

With `COc1ccc2c(c1)C(=O)N(C[C@@]1(c3ccc(-c4ccc5ccn(C)c5n4)cc3)NC(=O)NC1=O)C2` [Compound 9507], the Ki was less than 10 nM.

For `COc1ccc2c(c1)C(=O)N(C[C@@]1(c3ccc(OCc4ccccn4)cc3)NC(=O)NC1=O)C2` [Compound 9627], the Ki was less than 10 nM.

Staying with this assay, now noted: Ki (nM), TACE inhibitory activity, class letters.
Consider `O=C1NC(=O)C(CN2Cc3ccc(O)cc3C2=O)(c2ccc(Br)cc2)N1` (stereo not drawn) [Compound 201], for which the Ki is 10 to 100 nM.

In the case of `Cc1cc(CN2C(=O)NC(CN3Cc4cc(O)ccc4C3=O)(c3ccccc3)C2=O)c2ccccc2n1` (stereo not drawn) [Compound 192], the Ki was 100 to 1000 nM.

With `COc1ccc2c(c1)CN(CC1(CN[C@H]3CC[C@H](N)CC3)NC(=O)NC1=O)C2=O` (stereo partly drawn) [Compound 291], the inhibition constant Ki was 100 to 1000 nM.

Turning to `COc1ccc2c(c1)CN(CC1(C3CCN(S(=O)(=O)c4cccs4)CC3)NC(=O)NC1=O)C2=O` (stereo not drawn) [Compound 266], the inhibition constant (Ki) is less than 10 nM.

For `O=C1NC(=O)[C@@](CN2Cc3ccc(F)cc3C2=O)(c2ccc(F)cc2)N1` (single isomer, unassigned) [Compound 22], the Ki lay within 100 to 1000 nM.

As to `COc1ccc2c(c1)CN(CC1(C3CCN(C4CCN(C(=O)OC(C)(C)C)CC4)CC3)NC(=O)NC1=O)C2=O` (stereo not drawn) [Compound 274], the Ki fell in the range of 100 to 1000 nM.

As to `CC1(CN2Cc3cc(-c4nccs4)ccc3C2=O)NC(=O)NC1=O` (stereo not drawn) [Compound 13], the Ki was 100 to 1000 nM.

As to `O=C1NC(=O)[C@@](CN2Cc3ccc(F)cc3C2=O)(c2ccc(-c3ccccc3)s2)N1` [Compound 250], the Ki was in the range of 10 to 100 nM.

`COc1ccc2c(c1)CN(CC1(C3CCN(C(=O)c4ccccc4)CC3)NC(=O)NC1=O)C2=O` (stereo not drawn) [Compound 267]: the Ki was 10 to 100 nM.

Regarding `O=C1NC(=O)C(CNc2ncccn2)(CN2Cc3ccc(Cl)cc3C2=O)N1` (stereo not drawn) [Compound 41], the Ki fell in the range of 100 to 1000 nM.

Regarding `O=C1NC(=O)C(CN2Cc3c(O)cccc3C2=O)(c2ccc(F)cc2)N1` (stereo not drawn) [Compound 199], the Ki was 100 to 1000 nM.

Take `O=C1NC(=O)[C@](CN2Cc3ccc(F)cc3C2=O)(c2cc3ccccc3o2)N1` [Compound 178]: the Ki is less than 10 nM.

In the case of `O=C1NC(=O)C(CN2Cc3cc(OCc4cc(-c5ccccc5)nc5ccccc45)ccc3C2=O)(c2ccc(F)cc2)N1` (stereo not drawn) [Compound 208], the Ki was 10 to 100 nM.

In the case of `CC(C)CCOc1ccc2c(c1)CN(CC1(c3ccc(Br)cc3)NC(=O)NC1=O)C2=O` (stereo not drawn) [Compound 222], the inhibitory constant (Ki) was less than 10 nM.

In the case of `O=C1NC(=O)[C@](CN2Cc3ccc(F)cc3C2=O)(c2ccc(-c3cc[n+]([O-])cc3)cc2)N1` [compound 247], the Ki is less than 10 nM.

Take `O=C1NC(=O)[C@@](CN2Cc3cc(Br)ccc3C2=O)(c2ccc(F)cc2)N1` [Compound 105]: the Ki lay within 10 to 100 nM.

The assay is the same for the next values; noted with them: Ki Rating, TACE inhibitory activity, Table 3000.
Consider `COc1ccc2c(c1)C(=O)N(C[C@@]1(c3ccc(-c4cc(C)c5c(cnn5C)c4)cc3)NC(=O)NC1=O)C2` [Compound 7020], for which the Ki was less than 10 nM.

Regarding `Cc1ccc2cc(-c3ccc([C@]4(CN5Cc6ccc(F)cc6C5=O)NC(=O)NC4=O)cc3)ccc2n1` [Compound 3013], the Ki was less than 10 nM.

Turning to `CC#CCOc1ccc2c(c1)C(=O)N(C[C@@]1(c3ccc(-c4cnn(C)c4)cc3)NC(=O)NC1=O)C2` [Compound 6018], the Ki is less than 10 nM.

Turning to `COc1ccc2c(c1)C(=O)N(CC1(c3cnn(-c4ccc(F)cc4)c3)NC(=O)NC1=O)C2` (stereo not drawn) [Compound 2024D], the Ki was less than 10 nM.

`COc1cc2c(cc1Cl)C(=O)N(CC1(C)NC(=O)NC1=O)C2` (stereo not drawn) [Compound 5012]: the Ki lay within 10 to 100 nM.

Turning to `COc1ccc2c(c1)C(=O)N(C[C@@]1(c3ccc(-c4cnn(-c5ccccc5)c4C)cc3)NC(=O)NC1=O)C2` [Compound 3019], the Ki was less than 10 nM.

Take `COc1ccc2c(c1)C(=O)N(C[C@@]1(c3ccc(-c4cc(C(F)(F)F)cc5c4ncn5C(C)C)cc3)NC(=O)NC1=O)C2` [Compound 3020]: the inhibition constant (Ki) lay in the range of 10 to 100 nM.

For `O=C1NC(=O)[C@](CN2Cc3ccc(F)cc3C2=O)(c2ccc(-c3ccc4ncsc4c3)cc2)N1` [Compound 3030], the Ki was less than 10 nM.

In the case of `COc1ccc2c(c1)C(=O)N(C[C@@]1(c3ccc(-c4cnn(C(C)C)c4)cc3)NC(=O)NC1=O)C2` [Compound 6015], the Ki is less than 10 nM.

For the compound `COc1ccc2c(c1)C(=O)N(C[C@@]1(c3ccc(-c4cc(C)c5nn(CC6CC6)cc5c4)cc3)NC(=O)NC1=O)C2` [Compound 7013], the inhibition constant Ki is less than 10 nM.

Turning to `COc1ccc2c(c1)C(=O)N(C[C@@]1(c3ccc(-c4cccnc4O)cc3)NC(=O)NC1=O)C2` [Compound 8017], the Ki was less than 10 nM.

As for `COc1cc2c(cc1F)C(=O)N(CC1(c3ccc(F)cc3)NC(=O)NC1=O)C2` (stereo not drawn) [Compound 2031C], the Ki was less than 10 nM.

For the compound `COc1ccc2c(c1)C(=O)N(C[C@@]1(c3ccc(-n4cccn4)cc3)NC(=O)NC1=O)C2` [Compound 8018], the inhibition constant (Ki) is less than 10 nM.

Regarding `O=C1NC(=O)[C@](CN2Cc3ccc(F)cc3C2=O)(c2ccc(-c3ccc(-n4ccnc4)cc3)cc2)N1` [Compound 7018], the Ki is less than 10 nM.

With `COc1ccc2c(c1)C(=O)N(C[C@@]1(c3ccc(-c4ncnc5ncn(CC6CC6)c45)cc3)NC(=O)NC1=O)C2` [Compound 3038], the Ki is less than 10 nM.

Turning to `COc1ccc2c(c1)C(=O)N(C[C@@]1(c3ccc(-c4ccc5c(cnn5C)c4)cc3)NC(=O)NC1=O)C2` [Compound 6012], the Ki is less than 10 nM.

For `COc1ccc2c(c1)C(=O)N(C[C@@]1(c3ccc(-c4ccc(-c5csc(N)n5)cc4)cc3)NC(=O)NC1=O)C2` [Compound 3044], the Ki was less than 10 nM.

As for `O=C1NC(=O)[C@](CN2Cc3cc(O)ccc3C2=O)(c2ccc(-c3ccncc3)cc2)N1` [Compound 8020], the inhibition constant Ki was less than 10 nM.

As to `COc1ccc2c(c1)C(=O)N(C[C@@]1(c3ccc(-c4c(C)noc4C)cc3)NC(=O)NC1=O)C2` [Compound 3016], the Ki was less than 10 nM.
